# Experimental data taken from ChEMBL document CHEMBL2046286, “Deconstructing 14-phenylpropyloxymetopon: minimal requirements for binding to mu opioid receptors” (Bioorg Med Chem, 2012).
# Chains of the proteins cited; added tags and fusions are not shown.
# UniProt P33533, whole entry: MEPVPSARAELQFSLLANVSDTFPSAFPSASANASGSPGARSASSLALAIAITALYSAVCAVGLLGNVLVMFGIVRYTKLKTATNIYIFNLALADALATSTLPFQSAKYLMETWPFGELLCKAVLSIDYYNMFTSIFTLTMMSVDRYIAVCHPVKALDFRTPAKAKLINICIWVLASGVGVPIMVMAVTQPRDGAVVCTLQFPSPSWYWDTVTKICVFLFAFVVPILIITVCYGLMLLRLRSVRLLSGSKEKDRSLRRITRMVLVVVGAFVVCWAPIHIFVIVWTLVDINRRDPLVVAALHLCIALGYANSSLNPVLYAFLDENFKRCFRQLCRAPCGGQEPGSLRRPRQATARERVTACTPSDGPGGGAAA
# Target: Delta-type opioid receptor (Rattus norvegicus, UniProt P33533)
# Assay: Displacement of [3H]DPDPE from delta opioid receptor in rat brain homogenate after 1 hr by liquid scintillation counting
# Assay type: tissue-based
smiles,measurement,value
CN(CCOCCCc1ccccc1)CCc1ccccc1,Ki,8.53 µM
